Results: patent publication US20250129027A1 (APOGEE PHARMACEUTICALS, INC., priority 2023, published 2025)

The chains behind the UniProt entries cited, without tags or fusion partners.
UniProt O00519, whole entry: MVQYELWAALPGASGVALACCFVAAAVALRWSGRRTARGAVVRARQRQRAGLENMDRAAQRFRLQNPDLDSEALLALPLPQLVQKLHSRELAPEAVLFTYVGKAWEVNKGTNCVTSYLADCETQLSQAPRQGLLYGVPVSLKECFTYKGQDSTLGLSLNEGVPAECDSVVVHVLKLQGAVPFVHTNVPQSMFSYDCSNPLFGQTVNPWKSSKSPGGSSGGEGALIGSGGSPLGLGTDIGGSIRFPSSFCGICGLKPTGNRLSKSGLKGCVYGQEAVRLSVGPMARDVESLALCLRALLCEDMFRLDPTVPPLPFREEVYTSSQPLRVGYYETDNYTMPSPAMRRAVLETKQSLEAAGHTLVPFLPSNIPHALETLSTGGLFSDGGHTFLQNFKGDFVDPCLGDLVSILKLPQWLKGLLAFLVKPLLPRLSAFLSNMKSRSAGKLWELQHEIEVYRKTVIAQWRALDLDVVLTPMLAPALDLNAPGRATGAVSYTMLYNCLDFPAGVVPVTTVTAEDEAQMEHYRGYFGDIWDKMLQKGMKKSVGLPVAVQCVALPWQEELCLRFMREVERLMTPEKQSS

Target: human recombinant FAAH (Homo sapiens (Human), UniProt O00519)
Assay: In vitro inhibition of FAAH activity (fluorescent inhibitor screening kit, AMC arachidonoyl amide)
Assay type: biochemical
Conditions: read-out: Inhibition on FAAH activity (IC50)

## CCCCCCCNC(=O)Oc1cccc(-c2cc(-c3nnco3)ccn2)c1
  IC50: 1 to 10 nM
